{"source": "patent US20130164347A1", "about": "“MULTILAYER POLYMERIC DRUG DELIVERY SYSTEM” (priority 2011, published 2013)", "test": "In-vitro release of 5-FU from partially encapsulated multilayer polymeric films", "conditions": "2.5 mm disks die-cut from the carrier layer alone (mono layer)"}
{"smiles": "O=c1[nH]cc(F)c(=O)[nH]1", "note": "[5-FU, 5-Fluoro-Uracil]", "values": [{"measurement": "release profile of 5-FU", "value": "burst only"}]}
